# AlphaSeq binding of Ab-14 heavy chain variants to a spike HR2 peptide

Source: Li et al. 2023 (doi:10.1038/s41467-023-39022-2), MIT Lincoln Laboratory and A-Alpha Bio; data file from the FLAb repository.

The target is the same throughout: PDVDLGDISGINAS, from the HR2 region of SARS-CoV-2 spike.

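The variants were designed computationally from a first round of random CDR variants and then made and measured. Several design methods are mixed in this list. Affinity was read by AlphaSeq, a pooled yeast mating assay with surface-displayed partners. After mating in shaken culture at 30 °C for 16 h, diploids were selected and their barcode pairs sequenced. A regression on co-assayed BCL2-family reference pairs converts the normalised counts of each replicate to an apparent Kd. There are six technical replicates.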

Each scFv is VH, the linker GGGGSGGGGSGGGGS, VL, as in the parent Ab-14, and differs from it in the CDRs of the heavy chain only.
VH: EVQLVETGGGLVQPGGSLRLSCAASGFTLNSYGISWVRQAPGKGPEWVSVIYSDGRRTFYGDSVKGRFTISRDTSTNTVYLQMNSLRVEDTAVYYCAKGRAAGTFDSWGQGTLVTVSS
VL: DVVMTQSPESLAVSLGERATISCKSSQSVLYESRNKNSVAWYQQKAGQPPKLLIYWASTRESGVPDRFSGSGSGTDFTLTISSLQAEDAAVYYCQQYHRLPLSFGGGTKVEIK

The parent's heavy chain CDRs are GFTLNSYGIS, VIYSDGRRTFYGDSVK, GRAAGTFDS; each variant's own CDRs replace them letter for letter. The read-out is the apparent dissociation constant on a log10 scale (nM): the lower, the stronger. Averages over replicates are reported, and they cover detected replicates only. "not detected" marks a missing value. The strain was present, yet no cells mated with the target were sequenced in any replicate, which points to weak or no binding.

| CDR-H1 | CDR-H2 | CDR-H3 | log10 Kd (nM), mean | detected | control signals |
|---|---|---|---|---|---|
| GFNLNEYGIS | VIYADGRRTFYADSVK | GEQAGTFDV | 0.01 | 6 of 6 | 0 of 18 |
| GFDLNSYGIS | VIYSDGRRTFYIDSVK | GRAAGTFDV | 0.19 | 6 of 6 | 0 of 18 |
| GFDLDEYGIS | VIYADGQRTAYADSVK | GSNAGTFDI | 0.20 | 6 of 6 | 1 of 18 |
| GFGLNSYGIS | VIYSDGRRTFYIDSVK | GQTAGTFDS | 0.49 | 6 of 6 | 0 of 18 |
| GFQLNEYGIS | VIYSDGRRTFYGDSVK | GKAAGTFDR | 0.66 | 6 of 6 | 0 of 18 |
| GFELNSYGIS | VIYADGRRTFYGDSVK | GSAAGTFDS | 0.31 | 2 of 6 | 0 of 18 |
| GFRLNEYGIS | VIYADGRRTFYGDSVK | GRQMGTFDS | not detected | 0 of 6 | 0 of 18 |
| EFTLNEYGIS | VIYSDGRRTFYTDSVK | GRQAGTFDS | 0.90 | 6 of 6 | 1 of 18 |
| GFTLNSPGIS | VIYADGRRTFYGDSVK | ARAAGTNKS | 2.33 | 1 of 6 | 0 of 18 |
| GFDLDEYGIS | VIYADGMRTAYTDSVK | GENAGTFDQ | -1.60 | 4 of 6 | 0 of 18 |
| GFDLNEYGIS | VIYADGRRTFYADSVK | GNNAGTFDA | 0.11 | 6 of 6 | 0 of 18 |
| GFQLNEYGIS | VIYSDGRRTFYGDSVK | GRAALTFNS | not detected | 0 of 6 | 0 of 18 |
| GFDLNEYGIS | VIYADGMRTAYSDSVK | GKVAGTFDV | -0.77 | 6 of 6 | 1 of 18 |
| GFELNSYGIS | VIYSDGRRTFYADSVK | GQTAGTFDT | -0.14 | 4 of 6 | 0 of 18 |
| GFQLNEYGIS | VIYADGKRSEYQDSVK | GGSNSSFSL | not detected | 0 of 6 | 0 of 18 |
| GFDLNEYGIS | VIYADGVRTAYADDVK | GSNAGTFDI | 0.54 | 6 of 6 | 0 of 18 |
| GFDLNEYGIS | VIYADGRRTQYIDSVK | GEQAGTFDE | -0.70 | 6 of 6 | 0 of 18 |
| GFNLDEYGIS | VIYADGMRTAYSDSVK | GEVAGTFDI | -0.47 | 6 of 6 | 1 of 18 |
| GFNLNSYGIS | VIYSDGRRTFYADSVK | GAAAGTFDS | 0.51 | 6 of 6 | 1 of 18 |
| GFALNEYGIS | VIYSDGRRTFYGDSVK | GEAAGTFDS | -0.24 | 5 of 6 | 0 of 18 |
| GFTLRSYGIS | VIYSDGRRTFYGDSTK | GRARGTFDV | not detected | 0 of 6 | 0 of 18 |
| GFDLNEYGIS | VIYADGMRTAYSDSVK | GEVAGTFDI | -0.13 | 6 of 6 | 0 of 18 |
| GFGLNEYGIS | VIYSDGRRTFYIDSVK | GQAAGTFDS | 0.31 | 6 of 6 | 1 of 18 |
| GFTLNEYGIS | VIYSDGRRTFYGDSVK | GRSAGTFDS | 0.44 | 6 of 6 | 1 of 18 |
| GFELNDYGIS | VIYSDGRRTFYGDAVK | GRTAGTFDS | 1.39 | 5 of 6 | 0 of 18 |
| GFTLNSYGIS | VIYSDGHRTFYVDSVK | GRNKLTFDL | not detected | 0 of 6 | 0 of 18 |
| GFDLNSYGIS | VIYSDGRRTFYTDRVK | GEAAGTFDS | 0.44 | 6 of 6 | 0 of 18 |
| SFELNSYGIS | VIYSDGRRTFYADSVK | GRTAGTFDS | 0.95 | 6 of 6 | 0 of 18 |
| GFTLNSYGIS | VIYSDGMRTFYSDSVK | GNTAGTFDS | -0.07 | 6 of 6 | 1 of 18 |
| GFTLESYGIS | VIYSDGRRTFYADDVK | GRAAGTFDK | 0.92 | 6 of 6 | 1 of 18 |
| GFTLNSYGIS | VIYSDGRRTYYGDSVK | GRLAGLFDS | not detected | 0 of 6 | 0 of 18 |
| GETLNSYGIS | VIYSDGWRTFYGDSVK | GRAAGEFDS | not detected | 0 of 6 | 0 of 18 |
| GFTLNDYGIS | VIYSDGRRTFYADSVK | GRAAGTFDS | 0.27 | 10 of 12 | 1 of 36 |
| GFTLNSYGIS | VIYSDGRRTFYSDSVK | GMAAGTFDT | -0.01 | 6 of 6 | 0 of 18 |
| GFTLNEYGIS | VIYSDGRRTFYTDSVK | GREAGTFDI | 0.86 | 6 of 6 | 0 of 18 |
| GFWLNSYGIS | VIYADGRRTFYGDSVK | GVAAGTFDS | 0.29 | 6 of 6 | 0 of 18 |
| GFTLNSYGIS | VIYSDGLRTFYDDSVK | GRVAGTFDS | 1.06 | 6 of 6 | 0 of 18 |
| QFDLNSYGIS | VIYSDGRRTFYGDSVK | GRQAGTFDS | not detected | 0 of 6 | 0 of 18 |
| GFSLNAYGIS | VIYSDGRRTAYGDSVK | GRAAGTFDS | 0.61 | 6 of 6 | 0 of 18 |
| GFTLNSYGIS | VIYGDGRRTFDGDAVK | GRAAGTNKS | not detected | 0 of 6 | 0 of 18 |
| MFDLNSYGIS | VIYSDGRRTFYGDSVK | GEAAGTFDS | 1.83 | 4 of 6 | 1 of 18 |
| GFELNSYGIS | VIYSDGRRTAYGDSVK | GRQAGTFDT | 0.60 | 6 of 6 | 0 of 18 |
| GFDLEEYGIS | VIYADGRRTFYSDSVK | GEIAGTFDV | -0.87 | 3 of 6 | 0 of 18 |
| GFDLDEYGIS | VIYADGQRTAYSDSVK | GNVAGTFDQ | -0.43 | 6 of 6 | 0 of 18 |
| GFQLNSYGIS | VIYSDGQRTFYVDSVK | GRTAGTFDS | 2.26 | 5 of 6 | 0 of 18 |
| GFNIDEYGIS | VIYADGVRTAYHDKVK | GFNQVLSLD | not detected | 0 of 6 | 1 of 18 |
| GFDLNEYGIS | VIYADGRRKFYADSVK | GNTAGTFDS | 0.95 | 5 of 6 | 0 of 18 |
| GFTLLSYGIS | VIYSDGRRTFYIDSVK | RRAAGTFDS | not detected | 0 of 6 | 0 of 18 |
| GFSLNTYGIS | VIYSDGRRTFYIDSVK | GRAAGTFDS | 0.71 | 4 of 6 | 0 of 18 |
| GFDLNEYGIS | VIYADGSRTAYADSVK | GNQAGTFDV | -0.32 | 6 of 6 | 0 of 18 |
| GFDLDEYGIS | VIYADGQRTAYTDSVK | GNVAGTFDV | 0.57 | 6 of 6 | 1 of 18 |
| GFSLNEYGIS | VIYSDGRRTFYGDDVK | GKAAGTFDS | 0.30 | 6 of 6 | 0 of 18 |
| GFWLNDYGIS | VIYSDGRRTFYHDSVK | GRAAGTFDS | 1.08 | 6 of 6 | 0 of 18 |
| GFTLNSYGIS | VIYSDGRRTFYSDSVK | GRAAGTFDS | 0.81 | 12 of 12 | 0 of 36 |
| GFEIDEYGIS | VIYADGIRSSYNDNVK | GQLGTAFDL | not detected | 0 of 6 | 1 of 18 |
| GFDLNSYGIS | VIYSDGRRTFYGDSVK | GRAAGTFDQ | 0.78 | 11 of 12 | 0 of 36 |
| KETLNSYGIS | VIYADGRRTFYEDSVK | GRVAGTFDS | -0.07 | 6 of 6 | 0 of 18 |
| GFTLNMYGQS | VIYSHGRRTQYIDSVK | GRAAGTFDY | not detected | 0 of 6 | 0 of 18 |
| GFDLNEYGIS | VIYADGKRTYYADSVK | GNNAGTFDV | -0.50 | 6 of 6 | 1 of 18 |
| GFSLKEYGIS | VIYSDGRRTFYGDSVK | GRTAGTFDS | -0.60 | 6 of 6 | 0 of 18 |
| GFTLNSYGIS | VIYSDGRRTFYSDSVK | GVAGGTFDS | not detected | 0 of 6 | 0 of 18 |
| GFGLNEYGIS | VIYSDGRRTFYGDSVK | GRNAGTFIS | not detected | 0 of 6 | 0 of 18 |
| GFTLNSYGIS | VIYSDGSRTFYHDSVK | GEAAGTYDS | not detected | 0 of 6 | 0 of 18 |

Background: pairings of all heavy chain designs with three empty control strains gave a value in 1% of cases (median 2.08, 5th percentile 0.84). Values in that range, when seen in few replicates, are hard to tell from nonspecific mating. The control count says in how many pairings with the empty strains this scFv gave a signal. Some sequences occur more than once in the pool; their replicates are pooled. In the paper, a design with two or fewer of six values counts as a poor binder. A sequence measured in both rounds can read differently, since the two assays cover different ranges. The parent sequence was in this pool as ten entries: three were never detected, three once, and four in most replicates, with averages from 0.34 to 2.37.